Reference: publication PMC9699427 (Viruses, 2022)

Biological target: recombinant HIV-1 RT (Human immunodeficiency virus type 1 group M subtype B, UniProt P03366)
Experiment: biochemical

SMILES: Cc1cc(C#N)cc(C)c1Oc1nc(Nc2ccc(C#N)cc2)nc(N)c1Br [ETR, etravirine, reference compound]
- EC50: 1310 ± 320 nM
